Laboratory results from publication PMC8479189 (Frontiers in Oncology, 2021).

Molecular target: T1, human PD-L2.ECD.His (human, UniProt Q9BQ51 20-220)
T1 construct: extracellular domain of human PD-L2
T1 sequence (looked up): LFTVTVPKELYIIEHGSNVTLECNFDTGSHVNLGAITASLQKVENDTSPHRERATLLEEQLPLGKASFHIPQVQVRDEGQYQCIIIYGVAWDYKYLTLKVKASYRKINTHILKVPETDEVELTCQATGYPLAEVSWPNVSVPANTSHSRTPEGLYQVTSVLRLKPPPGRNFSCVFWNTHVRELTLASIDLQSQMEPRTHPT
Experiment: ELISA; plates coated with human PD-1-mFc, blocked with 2% BSA in PBS; human PD-L2.ECD.His (5 μg/mL) pre-mixed with antibodies (66.7 to 0.001 nmol/L), 1 h at room temperature; HRP-labeled goat anti-His detection
Conditions: both partners purified

binding result: binds
B1: human PD-1-mFc (Fc fusion, UniProt Q15116 25-170, looked up)
chain: LDSPDRPWNPPTFSPALLVVTEGDNATFTCSFSNTSESFVLNWYRMSPSNQTDKLAAFPEDRSQPGQDCRFRVTQLPNGRDFHMSVVRARRNDSGTYLCGAISLAPKAQIKESLRAELRVTERRAEVPTAHPSPSPRPAGQFQTLV
notes: extracellular domain of human PD-1 protein; also called human PD-1.ECD.mFc
